The values below come from publication PMC5112578, “Zika antiviral chemotherapy: identification of drugs and promising starting points for drug discovery from an FDA-approved library” (F1000Research, 2016).

The test system of the assay is Zika virus (ZIKV). Kind of assay: ZIKV high content screening assay (infection ratio by immunofluorescence in Huh7). Particulars: reference compound dose-response curve, ZIKV-infected Huh7, 72 h.

In the case of “IFNα2A: human recombinant Interferon α 2A used as reference compound”, the EC50 (usually the concentration needed to bring the measured effect to its halfway point) came to 2.07 pM.
